From US20240269321A1, “PREPARATION AND STORAGE OF LIPOSOMAL RNA FORMULATIONS SUITABLE FOR THERAPY” (BioNTech SE, priority 2020, published 2024)

Columns and labels:
[1] = RNA integrity in RNA lipoplexes at 40° C. (capillary electrophoresis); details: 21 days, no cryoprotectant
[2] = RNA integrity in RNA lipoplexes, accelerated storage at 25° C.; details: 10% sucrose, 6.45 mM NaCl, liposomes with 5 mM acetic acid
Procedure: RNA lipoplexes are incubated under accelerated conditions (25° C.) in the presence of an exemplarily cryoprotectant. RNA integrity was analyzed by capillary electrophoresis over 60 days. Additionally, RNA lipoplexes are incubated under at the anticipated storage conditions (−15° C.) in the presence of an exemplarily cryoprotectant for up to two years. RNA integrity was analyzed by capillary electrophoresis.
The respective RNA lipoplexes were investigated under accelerated conditions (25° C.) and in the frozen state (−15° C.).
RNA lipoplexes were formed with liposomes containing 2 mM of acetic acid. The respective RNA lipoplexes were investigated under accelerated conditions (25° C.) and in the frozen state (−15° C.).
Method: All RNA lipoplexes were automatically prepared in a single batch and the different concentrations of HEPES were adjusted by the addition of a cryoprotectant solution containing different amounts of HEPES. Particle sizes and polydispersity of RNA lipolexes were analyzed by photon correlation spectroscopy (PCS) measurements. Additionally, the RNA integrity was analyzed by capillary electrophoresis and the pH was measured. […]
The integrity of the RNA was analyzed using a 48 capillary Fragment Analyzer Automated System by Advanced Analytical (AATI) according to the manufacturers instructions. Results were analyzed via PROSize 2.0 version 2.0.051 data analysis software. […]

For acetic acid/sodium acetate, the “stabilization of the RNA (RNA integrity) by buffering system” value [1] was “comparable results” and the “stability of the RNA in RNA lipoplexes by buffer system” value [2] was “lower stability”.
